Counter-ions that a name gives are not always drawn.

Protein sequences, listed by entry. Tags and fused reporters are not part of them.
UniProt P50406, whole entry: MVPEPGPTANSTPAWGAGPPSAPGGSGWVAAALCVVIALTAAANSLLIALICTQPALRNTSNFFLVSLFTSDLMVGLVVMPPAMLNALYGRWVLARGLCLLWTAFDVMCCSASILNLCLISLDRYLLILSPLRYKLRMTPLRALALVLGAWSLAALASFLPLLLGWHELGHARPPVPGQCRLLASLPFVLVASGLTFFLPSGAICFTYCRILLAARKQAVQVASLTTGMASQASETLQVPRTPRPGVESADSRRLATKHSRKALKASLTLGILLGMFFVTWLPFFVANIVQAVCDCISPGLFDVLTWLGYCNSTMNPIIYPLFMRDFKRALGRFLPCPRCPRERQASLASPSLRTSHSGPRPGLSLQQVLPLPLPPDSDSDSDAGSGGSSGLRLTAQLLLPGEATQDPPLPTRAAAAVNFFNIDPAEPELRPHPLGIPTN

Here are results for 28 compounds from patent publication US8575186B2, “Epiminocycloalkyl[b] indole derivatives as serotonin sub-type 6 (5-HT6) modulators and uses thereof” (Albany Molecular Research, Inc., priority 2009, dated 2013).

The first assay concerns the target human 5-HT6 receptor (Homo sapiens (Human), UniProt P50406). Briefly: radioligand binding assay (SPA format), [N-methyl-3H]-LSD. The note with it: read-out: human 5HT6 Ki.
As usually defined, the Ki is a dissociation constant, usually derived from enzyme kinetics or from competition with a known ligand. `Cl.Cn1c2c(c3cc(S(=O)(=O)c4ccccc4)ccc31)C1CCC(C2)N1` (stereo not shown) [Example 27, 2-Phenylsulfonyl-5-methyl-5,6,7,8,9,10-hexahydro-7,10-epiminocyclohepta[b]indole hydrochloride]: the Ki came to 7.8 nM.

For `Cl.Cn1c2c(c3cc(S(=O)(=O)c4cccc(OC(F)(F)F)c4)ccc31)C1CCC(C2)N1` (stereo not shown) [Example 39, 2-(3-Trifluoromethoxyphenyl)sulfonyl-5-methyl-5,6,7,8,9,10-hexahydro-7,10-epiminocyclohepta[b]indole hydrochloride], the Ki worked out at 3.8 nM.

Take `Cl.Cn1c2c(c3cc(S(=O)(=O)c4cccc(C#N)c4)ccc31)C1CCC(C2)N1` (stereo not shown) [Example 43, 2-(3-Cyanophenyl)sulfonyl-5-methyl-5,6,7,8,9,10-hexahydro-7,10-epiminocyclohepta[b]indole hydrochloride]: the Ki worked out at 35 nM.

As to `CN(C)c1cccc(S(=O)(=O)c2ccc3c(c2)c2c(n3C)CC3CCC2N3)c1.Cl` (stereo not shown) [Example 45, 2-[(3-N,N-Dimethylamino)phenyl]sulfonyl-5-methyl-5,6,7,8,9,10-hexahydro-7,10-epiminocyclohepta[b]indole hydrochloride], the Ki turned out to be 14 nM.

Consider `Cl.Cn1c2c(c3cc(S(=O)(=O)c4cccc(NC5CCCC5)c4)ccc31)C1CCC(C2)N1` (stereo not shown) [Example 48, 2-[(3-N-Cyclopentylamino)phenyl]sulfonyl-5-methyl-5,6,7,8,9,10-hexahydro-7,10-epiminocyclohepta[b]indole hydrochloride], for which the inhibition constant (Ki) is 2 nM.

As for `Cl.Cn1c2c(c3cc(S(=O)(=O)c4ccc5ccccc5c4)ccc31)C1CCC(C2)N1` (stereo not shown) [Example 50, 2-(2-Napthyl)sulfonyl-5-methyl-5,6,7,8,9,10-hexahydro-7,10-epiminocyclohepta[b]indole hydrochloride], the Ki was found to be 37 nM.

In the case of `Cl.Cn1c2c(c3cc(S(=O)(=O)c4ccc(N)cc4)ccc31)C1CCC(C2)N1` (stereo not shown) [Example 53, 2-(4-Aminophenyl)sulfonyl-5-methyl-5,6,7,8,9,10-hexahydro-7,10-epiminocyclohepta[b]indole hydrochloride], the Ki came out at 13 nM.

As to `Cl.Cn1c2c(c3cc(S(=O)(=O)c4ccsc4)ccc31)C1CCC(C2)N1` (stereo not shown) [Example 56, 2-(3-Thienyl)sulfonyl-5-methyl-5,6,7,8,9,10-hexahydro-7,10-epiminocyclohepta[b]indole hydrochloride], the Ki is 51 nM.

On to `Cl.Cn1c2c(c3cc(S(=O)(=O)c4cccc(-c5ccccc5)c4)ccc31)C1CCC(C2)N1` (stereo not shown) [Example 57, 2-[(3-Phenyl)-phenyl]sulfonyl-5-methyl-5,6,7,8,9,10-hexahydro-7,10-epiminocyclohepta[b]indole hydrochloride], for which the Ki was found to be 2.6 nM.

For `COc1ccc2c(ccn2S(=O)(=O)c2ccc3c(c2)c2c(n3C)CC3CCC2N3)c1.Cl` (stereo not shown) [Example 66, 2-[1-(5-Methoxy)-indole]sulfonyl-5-methyl-5,6,7,8,9,10-hexahydro-7,10-epiminocyclohepta[b]indole hydrochloride], the Ki is 18 nM.

On to `Cc1cc(S(=O)(=O)c2cccc(F)c2)cc2c3c(n(C)c12)CC1CCC3N1.Cl` (stereo not shown) [Example 72, 2-(3-Fluorophenyl)sulfonyl-4,5-dimethyl-5,6,7,8,9,10-hexahydro-7,10-epiminocyclohepta[b]indole hydrochloride], for which the Ki was found to be 8.1 nM.

In the case of `Cc1cc(S(=O)(=O)c2cccc(Cl)c2)cc2c3c(n(C)c12)CC1CCC3N1.Cl` (stereo not shown) [Example 73, 2-(3-Chloro-phenyl)sulfonyl-4,5-dimethyl-5,6,7,8,9,10-hexahydro-7,10-epiminocyclohepta[b]indole hydrochloride], the Ki came out at 3 nM.

With `Cc1cccc(S(=O)(=O)c2cc(C)c3c(c2)c2c(n3C)CC3CCC2N3)c1.Cl` (stereo not shown) [Example 74, 2-(3-Methyl-phenyl)sulfonyl-4,5-dimethyl-5,6,7,8,9,10-hexahydro-7,10-epiminocyclohepta[b]indole hydrochloride], the Ki stood at 7.1 nM.

Take `Cc1cc(S(=O)(=O)n2ccc3ccccc32)cc2c3c(n(C)c12)CC1CCC3N1.Cl` (stereo not shown) [Example 79, 2-[1-Indolesulfonyl]-4,5-dimethyl-5,6,7,8,9,10-hexahydro-7,10-epiminocyclohepta[b]indole]: the inhibitory constant (Ki) came to 1.6 nM.

`CC(C)Oc1cc(S(=O)(=O)c2ccccc2)cc2c3c(n(C)c12)CC1CCC3N1.Cl` (stereo not shown) [Example 85, 2-Phenylsulfonyl-4-isopropoxy-5-methyl-5,6,7,8,9,10-hexahydro-7,10-epiminocyclohepta[b]indole hydrochloride]: the Ki came out at 14 nM.

Regarding `Cn1c2c(c3cc(S(=O)(=O)c4ccc5[nH]ccc5c4)ccc31)C1CCC(C2)N1` (stereo not shown) [Example 94], the Ki is 0.32 nM.

As for `Cn1c2c(c3cc(S(=O)(=O)c4c[nH]c5ccccc45)ccc31)C1CCC(C2)N1` (stereo not shown) [Example 98], the inhibition constant Ki came out at 1.3 nM.

Turning to `Cn1c2c(c3cc(S(=O)(=O)c4cccc5[nH]ccc45)ccc31)C1CCC(C2)N1` (stereo not shown) [Example 100], the Ki was determined as 1.2 nM.

As to `Cn1c2c(c3cc(S(=O)(=O)n4ccc5ccncc54)ccc31)C1CCC(C2)N1` (stereo not shown) [Example 108], the Ki came to 15 nM.

With `CCn1cc(S(=O)(=O)c2ccc3c(c2)c2c(n3C)CC3CCC2N3)c2ccccc21` (stereo not shown) [Example 109], the Ki is 0.72 nM.

For the compound `CCn1ccc2cc(S(=O)(=O)c3ccc4c(c3)c3c(n4C)CC4CCC3N4)ccc21` (stereo not shown) [Example 118], the Ki was determined as 5.8 nM.

With `Cn1c2c(c3cc(S(=O)(=O)c4cccc(-c5ccncc5)c4)ccc31)C1CCC(C2)N1` (stereo not shown) [Example 122], the Ki worked out at 48 nM.

The same assay, now with this note: read-out: human 5HT6 Ki; human 5-HT6 receptor membranes, 10 nM [3H]-LSD; hydrochloride.
Take `Cl.Cn1c2c(c3cc(S(=O)(=O)c4ccc(C(F)(F)F)cc4)ccc31)C1CCC(C2)N1` (stereo not shown) [Example 29, 2-(4-Trifluoromethylphenyl)sulfonyl-5-methyl-5,6,7,8,9,10-hexahydro-7,10-epiminocyclohepta[b]indole hydrochloride]: the Ki came out at 136 nM.

The assay is the same for the next values; noted with them: read-out: human 5HT6 Ki; hydrochloride.
In the case of `Cn1c2c(c3cc(S(=O)(=O)c4cccc(C(F)(F)F)c4)ccc31)C1CCC(C2)N1` (stereo not shown) [Example 38, 2-(3-Trifluoromethylphenyl)sulfonyl-5-methyl-5,6,7,8,9,10-hexahydro-7,10-epiminocyclohepta[b]indole hydrochloride], the inhibition constant (Ki) worked out at 2.1 nM.

For the compound `Cn1c2c(c3cc(S(=O)(=O)n4ccc5ccccc54)ccc31)C1CCC(C2)N1` (stereo not shown) [Example 62, 2-(1-indole)sulfonyl-5-methyl-5,6,7,8,9,10-hexahydro-7,10-epiminocyclohepta[b]indole hydrochloride], the Ki was determined as 0.85 nM.

Consider `Cl.Cn1c2c(c3cc(S(=O)(=O)n4ccc5cc(F)ccc54)ccc31)C1CCC(C2)N1` (stereo not shown) [Example 63, 2-[1-(5-Fluoro)-indole]sulfonyl-5-methyl-5,6,7,8,9,10-hexahydro-7,10-epiminocyclohepta[b]indole hydrochloride], for which the Ki amounted to 1.43 nM.

Take `Cn1c2c(c3cc(S(=O)(=O)n4ccc5ccc(F)cc54)ccc31)C1CCC(C2)N1` (stereo not shown) [Example 65, 2-[1-(6-fluoro)-indole]sulfonyl-5-methyl-5,6,7,8,9,10-hexahydro-7,10-epiminocyclohepta[b]indole hydrochloride]: the Ki is 0.59 nM.

For `COc1cc(S(=O)(=O)c2ccccc2)cc2c3c(n(C)c12)CC1CCC3N1.Cl` (stereo not shown) [Example 83, 2-Phenylsulfonyl-4-methoxy-5-methyl-5,6,7,8,9,10-hexahydro-7,10-epiminocyclohepta[b]indole hydrochloride], the Ki is 0.96 nM.
